# Giardia kill – kills Giardia lamblia; Giardia lamblia trophozoite viability; activity change, % at 7.66 µM, hits read low; 340,000 compounds, 0.15% hits; in the data active = activity change below about -80%; inconclusive = between about -30% and that limit;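 note: parasites exposed to compound for two days anaerobically before the ATP read; % is set by controls: 0 for no effect and ±100 for the full control effect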
#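 ATP-content bioluminescence gauges trophozoite survival. Cells (100/well) receive compound and incubate anaerobically for 48 hrs at 37 deg C; detection reagent follows for 15-30 min at room temperature.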
# B2AR arrestin – recruits beta-arrestin to the human beta2-adrenergic receptor; P07550; beta-arrestin recruitment to beta2AR, cell-based reporter; Potency, µM (highest dose often 46.1 µM), inactives show at the highest dose activation, usual class: activators; 330,000 compounds, 0.02% hits; AID 492947;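 note: potency is the fitted concentration of half-maximal effect; 0% = DMSO controls and full agonism = EC100 isoproterenol or metaproterenol; nearly all actives have a fitted effect of over 65% in size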
# uPA generation – cell surface uPA generation inhibition | cell surface uPA generation assay, qHTS | Potency, µM (series often up to 38.3 µM), without a hit: top-dose activity change, negative = inhibition, actives largely listed as inhibitors | 330,000 compounds, 0.31% hits | AID 540303; active = well fitted inhibition curve with a large enough effect; inconclusive = small, poorly fitted or top-dose-only effect; inactive = no such curve, though single readings can be large or run the other way; tested in mouse RAW 264.7 cells; note: potency is the fitted concentration of half-maximal effect; % is set by controls: 0 for no effect and ±100 for the full control effect; nearly all actives have a fitted effect of over 55% in size
# GALK inhibitor – galactokinase (human) inhibition | 270,000 compounds, 0.007% hits | Potency, µM (top dose mostly 57.5 µM), inactives show top-dose activity change, negative = inhibition, usual class: inhibitors | P51570 | Purified GALK, Kinase-Glo residual ATP luminescence; note: potency is the fitted concentration of half-maximal effect; % is set by controls: 0 for no effect and ±100 for the full control effect
#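 5 nM enzyme, 35 uM ATP, 100 uM galactose, 20 mM HEPES pH8.0, 5 mM MgCl2; 1 h RT; residual ATP by Kinase-Glo Plus luminescence, qHTS format.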
# Coupling enz – inhibits coupling enzyme system, counter-screen for aldolase hits. coupling enzyme system counterscreen, AmpLite Red fluorescence. activity change, negative = inhibition, % at 58.2 µM, hits read low. 290,000 compounds, 0.67% hits. AID 2472; in the data active = activity change below about -30%; note: % is set by controls: 0 for no effect and ±100 for the full control effect
#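 Counterscreen of the coupled detection system alone, without aldolase: glyceraldehyde-3-phosphate coupling enzymes plus AmpLite Red readout. Compounds at 57.5 uM final, 10 min RT preincubation, 20 min RT reaction, fluorescence 525/598 nm.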
# miR-21 reporter – raises the signal of a miR-21 reporter | Potency, µM (highest dose often 38.3 µM), without a hit: at the top dose reporter change, positive = more light | HeLa miR-21 FLuc reporter, luciferase, 48 h | 340,000 tested, under 10 active; active = well fitted rising curve with a large enough effect; inconclusive = small, poorly fitted or top-dose-only effect; inactive = no such curve, though single readings can be large or run the other way;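 further: % of control where 0% means no effect; miR-21 action dims this reporter so a rising signal means less miR-21 action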
#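 Luminescence from a firefly luciferase reporter carrying a miR-21 binding site downstream, stably expressed under a CMV promoter in HeLa cells that make miR-21 endogenously, reports miRNA modulation after 48 h compound exposure up to approximately 40uM final.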
# Active calls of the source: *; ? = inconclusive; / = no result given. Hits are enriched below; roughly 0.92% of the tested compounds scored in any of these assays. Unless noted, calls come from the whole dose curve; as a rule, active = well fitted curve in the direction sought with a large enough effect; inconclusive = small, poorly fitted or top-dose-only effect, or another doubt; inactive = no such curve, though single readings can be large; an effect the other way counts as inactive or inconclusive.
# Fields – uPA generation	Coupling enz	GALK inhibitor	Giardia kill	miR-21 reporter	B2AR arrestin
[1] O=C(NNC(=S)NCc1ccccc1)c1ccc(Br)o1
  2.8µM*	4	-2%	5	-3%	0%
[2] CCN(CC)c1ccc(NC2=C(Cl)C(=O)c3ccccc3C2=O)cc1
  -2%	-38*	3%	-3	-50%	15%
[3] CCCC(=O)NC1=C(Cl)C(=O)c2ccccc2C1=O
  -15%	/	/	-13	/	/
[4] CCNC1=C(Cl)C(=O)c2ccccc2C1=O
  -12%	-33*	3%	-6	21%	0%
[5] Cc1ccc(NC2=C(Cl)C(=O)c3ccccc3C2=O)cc1
  -2%	-22	1%	-4	-51%	0%
[6] O=C1C(Cl)=C(NCCN2CCCCC2)C(=O)c2ccccc21
  ?	-37*	-2%	4	?	0%
[7] O=C(NCCN1CCCC1)c1ccccc1Cl
  7%	6	4%	-17	-2%	0%
[8] Cc1cc(NC(=O)c2ccc3c(c2)OCCO3)no1
  -16%	-3	-1%	-80*	?	0%
[9] Cc1cc(Cl)ccc1NC(=O)c1ccc2c(c1)OCO2
  -4%	2	6%	-10	-28%	0%
[10] O=C(Nc1ccc(Cl)cc1Cl)c1ccc2c(c1)OCCO2
  4.5µM*	/	/	-29	/	0%
[11] COc1ccc(-c2nc(SCC(=O)Nc3ccc4c(c3)OCO4)c(-c3ccccc3)[nH]2)cc1
  /	/	/	/	4%	/
[12] C[C@@H]1OC(O[C@H]2[C@H](Oc3cc(O)c4c(=O)c(O)c(-c5ccc(O)cc5)oc4c3)O[C@H](CO)[C@@H](O)[C@@H]2O)[C@H](O)[C@H](O)[C@H]1O (stereo partly specified)
  /	1	/	/	/	/
[13] CC(C)Sc1nc2sc3c(c2c(=O)n1Cc1ccccc1)CCCC3
  /	/	/	/	-4%	/
[14] CCN1CCN(Cc2ccc(NC(=O)Nc3ccccc3Cl)cc2)CC1
  10µM*	0	-2%	-29	-61%	3%
[15] COc1cc(OC)c(OC)cc1/C=C1\CC(C)C/C(=C\c2cc(OC)c(OC)cc2OC)C1=O (stereo unspecified)
  8.9µM*	-2	-3%	11	?	0%
[16] Cn1nnnc1SCCCNCc1cc(Cl)ccc1OCc1ccc(F)cc1
  /	/	/	/	18%	/
[17] Clc1ccc(-c2nc3ccccn3c2Nc2ccc3c(c2)OCCO3)s1
  /	/	/	/	-54%	/
[18] c1ccc(-n2cnc3cc(NCc4ccccn4)ccc32)cc1
  -21%	-8	-1%	-3	-57%	0%
[19] c1ccc(-n2cnc3cc(NCc4ccncc4)ccc32)cc1
  2%	-42*	1%	2	-57%	0%
[20] O=C1C2CCCN2C(c2ccc(F)cc2)N1c1ccc(Cl)cc1 (stereo unspecified)
  5µM*	3	2%	-11	14%	-2%
[21] CN=c1scc(C)n1/N=C/c1cc(Br)c(O)c(OC)c1
  -3%	-2	0%	-14	-19%	0%
[22] CN=c1scc(-c2cccs2)n1/N=C/c1ccc(O)c(O)c1O
  -19%	-16	3%	-92*	-3%	0%
[23] CN=c1scc(C)n1/N=C/c1ccc(O)c(O)c1O
  -6%	-59*	1%	?	-6%	0%
[24] CN=c1scc(-c2cccs2)n1/N=C/c1ccccc1O
  -9%	-4	3%	?	?	0%
[25] Oc1ccc(/C=N/N2CCCCC2)c(O)c1O
  0%	-53*	12%	-2	1%	0%
[26] Oc1ccc(/C=N/N2CCOCC2)c(O)c1O
  2%	-48*	8%	-7	-4%	0%
[27] Cc1c2c(c(O)c3c(O)cccc13)C(=O)O[C@H]2C1C(N(C)C)C(O)=C(C(N)=O)C(=O)[C@H]1O (stereo partly specified)
  /	-20	/	/	/	/
[28] CCCc1nn2c(=O)cc(COC(=O)CNC(=O)COc3ccc(C)cc3)nc2s1
  /	/	/	/	0%	/
[29] CC1(C)Cc2ccccc2C2=NNC(=O)C2=N1
  -8%	-57*	0%	13	?	0%
[30] COc1ccc(-c2cccc(-c3cc(=O)oc4cc(OC)cc(OC)c34)c2)cc1
  0.79µM*	/	/	7	/	0%

# Five entries already listed, ordered by formula weight, largest number first:
# Fields – uPA generation	Coupling enz	GALK inhibitor	Giardia kill	miR-21 reporter	B2AR arrestin
[27] Cc1c2c(c(O)c3c(O)cccc13)C(=O)O[C@H]2C1C(N(C)C)C(O)=C(C(N)=O)C(=O)[C@H]1O (stereo partly specified)
  /	-20	/	/	/	/
[20] O=C1C2CCCN2C(c2ccc(F)cc2)N1c1ccc(Cl)cc1 (stereo unspecified)
  5µM*	3	2%	-11	14%	-2%
[24] CN=c1scc(-c2cccs2)n1/N=C/c1ccccc1O
  -9%	-4	3%	?	?	0%
[18] c1ccc(-n2cnc3cc(NCc4ccccn4)ccc32)cc1
  -21%	-8	-1%	-3	-57%	0%
[26] Oc1ccc(/C=N/N2CCOCC2)c(O)c1O
  2%	-48*	8%	-7	-4%	0%

# As entered above:
# In uPA generation, cpd 3 is listed with -15%
# In Giardia kill, cpd 2 is listed with -3
# In Giardia kill, cpd 19 is listed with 2
# In Coupling enz, cpd 5 is listed with -22
# In GALK inhibitor, cpd 22 is listed with 3%
# In uPA generation, cpd 30 is listed with 0.79µM*

# The results go on.
# Fields – uPA generation	Coupling enz	GALK inhibitor	Giardia kill	miR-21 reporter	B2AR arrestin
[31] COc1cc(OC)c2c(-c3cccc(-c4cccc(C)c4)c3)cc(=O)oc2c1
  3.2µM*	-3	/	7	/	0%
[32] COc1cc(OC)c2c(-c3cccc(-c4ccc(OC(F)(F)F)cc4)c3)cc(=O)oc2c1
  10%	0	/	-19	/	10%
[33] COc1cc(OC)c2c(-c3cccc(-c4ccc(CO)cc4)c3)cc(=O)oc2c1
  0.89µM*	1	/	23	/	-1%
[34] COc1cc(OC)c2c(-c3cccc(-c4ccc(O)cc4)c3)cc(=O)oc2c1
  ?	0	/	14	/	0%
[35] O=C(Nc1c(Cl)cc([N+](=O)[O-])cc1Cl)c1cc(Cl)cc(Cl)c1O
  /	/	/	11	/	/
[36] O=C(O)c1cccc(NC2=C(n3nnc4ccccc43)C(=O)c3ccccc3C2=O)c1
  -6%	-32*	/	25	-15%	-1%
[37] N#Cc1c(N)oc(-c2ccco2)c1-c1ccco1
  -9%	-9	-1%	21	1%	0%
[38] COc1ccc(OC)c(/C=N/c2oc(-c3ccco3)c(-c3ccco3)c2C#N)c1
  -3%	-44*	-1%	0	5%	1%
[39] CCn1c2c(c(=O)n3ncc(C(=O)Nc4ccc(OC(F)(F)F)cc4)c13)CN(Cc1ccc(OC)cc1)CC2
  /	/	/	/	-5%	/
[40] CC(=O)Nc1ccc(NS(=O)(=O)c2ccc(C)cc2)c([N+](=O)[O-])c1
  6%	2	2%	-99*	-2%	0%
[41] CC(=O)Nc1ccc(NS(=O)(=O)c2ccc(C)cc2)cc1[N+](=O)[O-]
  -1%	2	-2%	14	-3%	0%
[42] COCCn1c(SCC(=O)Nc2nnc(C)s2)nnc1-c1c[nH]c2ccccc12
  /	0	2%	12	2%	0%
[43] COCCn1c(SCC(=O)Nc2nnc(C)s2)nnc1-c1cc2ccccc2cc1O
  3%	-44*	-2%	-1	-5%	0%
[44] CC1=C(C(=O)Nc2c(C)cc(C)cc2C)C2(CCN(C(C)C)CC2)OC1=O
  /	/	/	/	-1%	/
[45] Cc1c(C)c2c(c(C)c1O)CC[C@@](C)(C(=O)O)O2
  /	-34*	/	/	/	/
[46] Cc1c(C)c2c(c(C)c1O)CC[C@@](C)(CCC[C@@H](C)CCC[C@@H](C)CCCC(C)C)O2
  /	-2	/	/	/	/
[47] CCN(CC)CCNc1cc(C)nc2c1C(=O)C(=O)C=C2N1CCCCC1
  ?	-64*	1%	-1	?	0%
